Results taken from patent US12304897B2, “15-PGDH inhibitors” (KYORIN PHARMACEUTICAL CO., LTD., priority 2019, dated 2025).
pIC50: −log10 of the molar value.

Chains of the proteins cited; added tags and fusions are not shown.
UniProt P15428, whole entry: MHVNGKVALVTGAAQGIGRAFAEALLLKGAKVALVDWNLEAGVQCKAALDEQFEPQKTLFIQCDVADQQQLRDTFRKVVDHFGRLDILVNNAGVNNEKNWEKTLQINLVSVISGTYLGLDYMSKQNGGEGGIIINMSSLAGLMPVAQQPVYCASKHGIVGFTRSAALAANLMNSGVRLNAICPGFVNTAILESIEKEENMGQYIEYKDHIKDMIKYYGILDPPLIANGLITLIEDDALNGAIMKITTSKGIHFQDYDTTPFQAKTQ

Molecular target: recombinant human 15-PGDH (Homo sapiens (Human), UniProt P15428)
Assay: 15-PGDH enzyme inhibition test
Type: biochemical
Settings: 4 nM recombinant human 15-PGDH, 30 μM PGE2, 1 mM NAD+, fluorescence 340/440 nm after 60 min

| SMILES | pIC50 |
| --- | --- |
| COc1noc2cc(-c3cccc4cc(C(=O)N5CCC(F)(F)CC5)cnc34)ccc12 | < 8.00 |
| CNC(=O)c1ncc(-c2cccc3cc(C(=O)N4CCC(F)(F)CC4)ccc23)cn1 | 8.00 to 8.52 |
| O=C(c1cnc2c(-c3ccc4c(=O)[nH]ncc4c3)cccc2c1)N1CCC(F)(F)CC1 | > 8.52 |

Continued, values first:

| pIC50 | SMILES |
| --- | --- |
| > 8.52 | NC(=O)c1ncc(-c2cccc3cc(C(=O)N4CCC(F)(F)CC4)ccc23)cn1 |
| > 8.52 | O=C(c1ccc2c(-c3ccc4c(=O)[nH]ncc4c3)cccc2c1)N1CCC(F)(F)CC1 |
| > 8.52 | O=C1NCc2cc(-c3cccc4cc(C(=O)N5CCC(F)(F)CC5)cnc34)cnc21 |
